The list shows a part of the results, in another mix than the full data. Calls of active or inactive are those of the source. No stated cut-off is given here; in the data, active means survival enhancement above about 18%; inactive means the rest.
Assay: enhancers of single-cell hiPSC survival, primary screen, ATPlite luminescence (AID 602274);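 further: cells exposed to compounds for 16 hours before the ATP read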
Conditions: at 20 µM, hits give high values, 100% = ROCK inhibitor wells, 0% = DMSO

Structure (SMILES) | survival enhancement
CC1CCN(C(=O)Oc2c(Cl)cc(Cl)c3cccnc23)CC1 | inactive: 10.6%

— PubChem BioAssay AID602274 (Sanford-Burnham Center for Chemical Genomics, 2012)
